AlphaSeq binding of Ab-14 light chain variants to a spike HR2 peptide

Values reported by Li et al. 2023, doi:10.1038/s41467-023-39022-2 (FLAb copy).

Target: peptide PDVDLGDISGINAS, taken from heptad repeat 2 (HR2) of SARS-CoV-2 spike.

Parent scFv Ab-14: VH joined to VL by a (GGGGS)3 linker. Changes lie in the light chain CDRs alone.
VH: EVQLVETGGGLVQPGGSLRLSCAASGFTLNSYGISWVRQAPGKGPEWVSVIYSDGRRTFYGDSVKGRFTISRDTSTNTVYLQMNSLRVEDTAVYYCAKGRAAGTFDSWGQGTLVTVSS
VL: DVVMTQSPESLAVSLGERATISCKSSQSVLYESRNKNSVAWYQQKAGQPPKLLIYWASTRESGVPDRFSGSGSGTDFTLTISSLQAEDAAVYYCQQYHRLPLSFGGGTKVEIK

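The starting antibody came from a phage panning campaign against this peptide. This is the validation round: designs drawn from the data on random variants, tested in the same kind of assay. Group labels follow the data file (En: ensemble of fine-tuned language models; GP: Gaussian process model; HC: hill climbing; Gen: genetic algorithm; Gibbs: Gibbs sampling; a sequence that several methods proposed may carry one label only). Affinity was read by AlphaSeq, a pooled yeast mating assay with surface-displayed partners. The frequency of each diploid, read from paired DNA barcodes, reflects how well the two displayed proteins bind. Each replicate has its own calibration line, from reference interactions of the BCL2 family. Mating was done six times.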

The parent's light chain CDRs are KSSQSVLYESRNKNSVA, WASTRES, QQYHRLPLS; each variant's own CDRs replace them letter for letter.
Variants here have more than six changes.
Values are apparent Kd, the geometric mean of the replicates that gave a signal; lower means stronger binding.
Where no diploid with the target was found in any replicate, the entry reads "no signal": below detection, most likely a poor binder, though not proof of it.

| CDR-L1 | CDR-L2 | CDR-L3 | group | apparent Kd | seen in |
|---|---|---|---|---|---|
| KISQMFNVGTKNTNSLA | EMNTRGL | QDYHRLPLS | En_HC | 22 nM | 6/6 |
| KIQQSYLYEDRNKNSVA | NASTRLW | QQYHRLPLS | GP_Gibbs | 1.2 nM | 6/6 |
| KIAQSMNLTSHHINSVA | QSTTREE | QQYNHLPLS | En_HC | 55 nM | 6/6 |
| KVSEFMKGLMMRTDSIA | DNETRNN | QQYDRLPLS | En_Gen | 160 nM | 4/6 |
| KLSMEPAWLTGQMDSIA | HVEIRWA | QQYHKLPLI | En_Gibbs | no signal | 0/6 |
| KLMYSVPGESRNKNSVA | DASTRSS | QQYHRLPLS | GP_Gibbs | 2.1 nM | 6/6 |
| TISQLHNMGTFAINSVA | QASIRNA | QQYDRLPLI | En_Gen | 9.9 nM | 6/6 |
| MVSQLMVWGMHAKNSIA | EAEHRCN | QQYDRLPLF | En_Gen | 340 nM | 2/6 |
| MIAESVMYQSRNKNSVA | DNSTRED | QCYDRLPLS | En_HC | 43 nM | 6/6 |
| MVLKEDFQELAAKNAVA | NASEKET | QHYARLPLV | En_Gibbs | 50 nM | 6/6 |
| KIGMTLNTLLHQKNNVA | DLVERED | QQYFRLPLS | En_Gen | 1.7 nM | 6/6 |
| KITQLTMETSRNKNNVA | EVSTLPD | QQYHRLPLS | En_HC | 4.4 nM | 6/6 |
| SFSQTVMYESTMRNNVA | QTSTRES | QQYDHLPLS | En_HC | 1.4 nM | 6/6 |
| TISQVHGMQSHNKNSVA | DMNTRGS | QQYDRLPLS | En_HC | 1.8 nM | 6/6 |
| KIQSHLSQSFASKNNIA | DRVLSAE | QQYNRLPLV | En_Gibbs | 480 pM | 6/6 |
| HLSLRLSYGKMLQNAVA | GVQARMT | QQYARLPLL | En_Gibbs | 61 nM | 3/6 |
| KLSQSELYEERNDNSVA | QASQRES | QDYHRLPLS | GP_Gibbs | 120 nM | 5/6 |
| MISQLMNLGQFAINSVA | QASIRNQ | QQYDRLPLM | En_Gen | 58 nM | 6/6 |
| HLSLRLSYGNMLNKAVA | EVQARVY | QQYARLPLL | En_Gibbs | 100 nM | 1/6 |
| KFSQSVGYQSRNKNSVA | NAQTRMQ | QQYHRLPLS | GP_Gibbs | 2.7 nM | 6/6 |
| MIGQMLGWESNKIHSVA | QANLREE | QQYDRLPLE | En_Gen | 15 nM | 6/6 |
| MISQLYNMGTFAINSVA | QASLRCN | QQYDRLPLE | En_Gen | 630 nM | 5/6 |
| HVSEMIFAQMKARNSVA | ENNTRED | QQYDRLPLS | En_HC | 2.5 nM | 6/6 |
| KMSQSNDYEDRNSNAVA | EASTREM | QQYHRLPLS | GP_Gibbs | 53 nM | 6/6 |
| KVSQSAPYEDRNLNNVA | HASTRES | QQYHRLPLM | GP_Gibbs | 420 pM | 6/6 |
| TISQLYNMGSFAINSVA | QASLRNE | QQYDRLPLM | En_Gen | 27 nM | 6/6 |
| TLVQSVMGGSRAKNSVA | NAETRYD | QHYHRLPLS | En_HC | 2.3 nM | 6/6 |
| KLSQQNLYESRMMNSVA | MASQRES | QQYHRLPLS | GP_Gibbs | 2.5 nM | 6/6 |
| KLSFSTEMEHVNRNSVA | ELVTRMS | QQYNRLPLS | En_Gen | 900 pM | 6/6 |
| MMLQATMYGERQRNSVA | HAQTRED | QQYHRLPLI | En_HC | 11 nM | 6/6 |
| MMSQVTGSGSRHRNNVA | QTSMREI | QQYDRLPLI | En_Gen | 12 nM | 6/6 |
| KLQQSHLYGSRMKNSVA | HASVRES | QCYHRLPLS | GP_Gibbs | 5.3 nM | 6/6 |
| KLLQEVTGHTRNRNSVA | HNSTRED | QQYDRLPLS | En_HC | 210 nM | 1/6 |
| HLQEQSFVGQKDYSSVA | NTECKYN | QQYARLPLM | En_Gibbs | 2.1 nM | 6/6 |
| TIQQMMSLFSQTINNVA | EVSTRLN | QQYDRLPLS | En_Gen | 88 nM | 5/6 |
| KLTKYQYNATSHYQNVA | ESNKIME | QSYYRLPLS | En_Gibbs | 440 nM | 6/6 |
| MMSQVTGQGQRHRNNVA | QTSVREP | QQYDRLPLI | En_Gen | 14 nM | 6/6 |
| KLSWSVPYESRNLNNVA | HGSTRCS | QQYHRLPLS | GP_Gibbs | 3.2 nM | 6/6 |
| KVSQKNLYESRMKNSVA | MASQREM | QQYHRLPLS | GP_Gibbs | 3.7 nM | 6/6 |
| MISQIYNMGQFAINSVA | QAQTRNE | QQYDRLPLM | En_Gen | 25 nM | 5/6 |
| TISQITSLFSQTTNNVA | EVSTREN | QQYDRLPLS | En_Gen | 7.9 nM | 6/6 |
| IISQVDAYSSRNKNSIA | DQSTRGS | QQYDRLPLS | En_HC | 8.3 nM | 6/6 |
| HIAQSVGMTSFNKNSVA | ENSTREN | QQYDRLPLS | En_HC | 34 nM | 6/6 |
| MISDLTMYGSRNKNSVA | DLSTRGN | QQYDRLPLS | En_HC | 1.3 nM | 6/6 |
| IVNGVLDHLSKNTNNVA | ETSTRNS | QQYDRLPLS | En_Gen | 6.1 nM | 6/6 |
| IVSQLMLWGKSAKNSIA | EAQTRLN | QQYDRLPLF | En_Gen | 97 nM | 6/6 |
| HMSALTLQGMRMRNSVA | QMTTREN | QQYDRLPLT | En_Gen | no signal | 0/6 |
| KLGGESYNSTYEMDAVA | DQNTTYE | QHYSRLPLT | En_Gibbs | 2.0 µM | 1/6 |
| KFSQQVLYEDKQVNSVA | NASQRMS | QQYHRLPLS | GP_Gibbs | 890 pM | 6/6 |
| KVSQGMWYESRMKNSVA | NASQREQ | QQYHRLPLQ | GP_Gibbs | 1.0 nM | 6/6 |
| KLPQSTMQENVSKNSVA | ELSTRGS | QQYHRLPLS | En_HC | 6.2 nM | 6/6 |
| KVDQSQDYESRNKNSVA | QASQREQ | QQYHRLPLY | GP_Gibbs | 610 pM | 6/6 |
| HFDDLDVEWQANQSQVA | DHNEAQH | QQYARLPLS | En_Gibbs | 230 nM | 6/6 |
| HISYSVGMTSRNKNSVA | ENSTRED | QQYDRLPLS | En_HC | 180 nM | 5/6 |
| KLYFNVGTMSHNKQSIA | DMERRED | QQYHRLPLS | En_HC | 1.1 nM | 6/6 |
| HISQMVMYGTCNKNNVA | QVSLREE | QQYHRLPLS | En_HC | 48 nM | 6/6 |
| QLSMITGHMSVSKNNVA | EMETREN | QQYDRLPLS | En_Gen | 2.1 nM | 6/6 |
| KLEPFEEYESRNKNSVA | EASTRES | QQYHRLPLS | GP_Gibbs | 400 pM | 6/6 |
| SVTRETDENGLKMNSVA | DAAEAMT | QQYHRLPLT | En_Gibbs | 2.7 nM | 6/6 |
| KIGMTLNQLLHQKSNVA | DLVMREN | QQYHRLPLS | En_Gen | 2.8 nM | 6/6 |
| MITGSMENQESNQNPVA | SATCKAP | QQYSRLPLM | En_Gibbs | 93 nM | 6/6 |
| IISGSMLMESKHRNSVA | NAETREY | QHYDRLPLS | En_HC | 21 nM | 6/6 |
| KLSQSVMYGQRNKNSVA | NASTRMS | QQYHRLPLY | GP_Gibbs | 2.0 nM | 6/6 |
| TVSQVHGMLSHNQNSVA | DMNTRGS | QQYDRLPLS | En_HC | 1.2 nM | 6/6 |
| TIGQTLMSGMRNRSNVA | EVSERCN | QQYDRLPLL | En_Gen | 64 nM | 3/6 |
| KLSTSDLYESRNVNAVA | EASTRMD | QQYHRLPLS | GP_Gibbs | 560 pM | 6/6 |
| KVSPSVLYEDRNWNSVA | QASQRCS | QQYHRLPLS | GP_Gibbs | 590 pM | 6/6 |
| KVSPSWLGEDRNCNAVA | QASQRES | QQYHRLPLS | GP_Gibbs | 6.9 nM | 6/6 |
| KMSQENDYEDRNSNSVA | HASTREM | QQYHRLPLS | GP_Gibbs | 13 nM | 6/6 |
| KIGMTLNQLMHQKNNVA | DLVMREN | QQYFRLPLS | En_Gen | 3.0 nM | 6/6 |
| NVSIEEPGNWRMWDSVA | HSSLRAE | QQYWRLPLM | En_Gibbs | 3.5 nM | 6/6 |
| HMSMLTLSGMRHRNSVA | QMTTREN | QQYDRLPLS | En_Gen | 130 nM | 5/6 |
| MLSQMWAIGNKVSNSVA | QASTRFN | QQYDRLPLI | En_Gen | 68 nM | 6/6 |
| TLLYGPTEARKDMHNIA | DMSERAE | QQYHLLPLI | En_Gibbs | 7.6 nM | 6/6 |
| KLSQVTHSEHVNKNSIA | EMVTREK | QQYDRLPLS | En_HC | 11 nM | 6/6 |

Top 11 of the variants detected in all replicates, tightest first:

| CDR-L1 | CDR-L2 | CDR-L3 | group | apparent Kd | seen in |
|---|---|---|---|---|---|
| KLEPFEEYESRNKNSVA | EASTRES | QQYHRLPLS | GP_Gibbs | 400 pM | 6/6 |
| KVSQSAPYEDRNLNNVA | HASTRES | QQYHRLPLM | GP_Gibbs | 420 pM | 6/6 |
| KIQSHLSQSFASKNNIA | DRVLSAE | QQYNRLPLV | En_Gibbs | 480 pM | 6/6 |
| KLSTSDLYESRNVNAVA | EASTRMD | QQYHRLPLS | GP_Gibbs | 560 pM | 6/6 |
| KVSPSVLYEDRNWNSVA | QASQRCS | QQYHRLPLS | GP_Gibbs | 590 pM | 6/6 |
| KVDQSQDYESRNKNSVA | QASQREQ | QQYHRLPLY | GP_Gibbs | 610 pM | 6/6 |
| KFSQQVLYEDKQVNSVA | NASQRMS | QQYHRLPLS | GP_Gibbs | 890 pM | 6/6 |
| KLSFSTEMEHVNRNSVA | ELVTRMS | QQYNRLPLS | En_Gen | 900 pM | 6/6 |
| KVSQGMWYESRMKNSVA | NASQREQ | QQYHRLPLQ | GP_Gibbs | 1.0 nM | 6/6 |
| KLYFNVGTMSHNKQSIA | DMERRED | QQYHRLPLS | En_HC | 1.1 nM | 6/6 |
| TVSQVHGMLSHNQNSVA | DMNTRGS | QQYDRLPLS | En_HC | 1.2 nM | 6/6 |

Nonspecific signal, from three strains lacking the peptide, appeared in 4% of pairings of all light chain designs, centred on 430 nM (5% of these signals below 38 nM); values are not corrected for it.
The authors' rule: three or more of the six replicates give a measured affinity, fewer mean a poor binder.
A sequence measured in both rounds can read differently, since the two assays cover different ranges.